Results on one compound are retold here after the kinase profiling compilation of Christmann-Franck et al. (2016).

Amino acid sequences for entries named in this document (tags omitted).
FLT3 (human), P36888, UniProt P36888, whole entry, looked up, stated change not applied: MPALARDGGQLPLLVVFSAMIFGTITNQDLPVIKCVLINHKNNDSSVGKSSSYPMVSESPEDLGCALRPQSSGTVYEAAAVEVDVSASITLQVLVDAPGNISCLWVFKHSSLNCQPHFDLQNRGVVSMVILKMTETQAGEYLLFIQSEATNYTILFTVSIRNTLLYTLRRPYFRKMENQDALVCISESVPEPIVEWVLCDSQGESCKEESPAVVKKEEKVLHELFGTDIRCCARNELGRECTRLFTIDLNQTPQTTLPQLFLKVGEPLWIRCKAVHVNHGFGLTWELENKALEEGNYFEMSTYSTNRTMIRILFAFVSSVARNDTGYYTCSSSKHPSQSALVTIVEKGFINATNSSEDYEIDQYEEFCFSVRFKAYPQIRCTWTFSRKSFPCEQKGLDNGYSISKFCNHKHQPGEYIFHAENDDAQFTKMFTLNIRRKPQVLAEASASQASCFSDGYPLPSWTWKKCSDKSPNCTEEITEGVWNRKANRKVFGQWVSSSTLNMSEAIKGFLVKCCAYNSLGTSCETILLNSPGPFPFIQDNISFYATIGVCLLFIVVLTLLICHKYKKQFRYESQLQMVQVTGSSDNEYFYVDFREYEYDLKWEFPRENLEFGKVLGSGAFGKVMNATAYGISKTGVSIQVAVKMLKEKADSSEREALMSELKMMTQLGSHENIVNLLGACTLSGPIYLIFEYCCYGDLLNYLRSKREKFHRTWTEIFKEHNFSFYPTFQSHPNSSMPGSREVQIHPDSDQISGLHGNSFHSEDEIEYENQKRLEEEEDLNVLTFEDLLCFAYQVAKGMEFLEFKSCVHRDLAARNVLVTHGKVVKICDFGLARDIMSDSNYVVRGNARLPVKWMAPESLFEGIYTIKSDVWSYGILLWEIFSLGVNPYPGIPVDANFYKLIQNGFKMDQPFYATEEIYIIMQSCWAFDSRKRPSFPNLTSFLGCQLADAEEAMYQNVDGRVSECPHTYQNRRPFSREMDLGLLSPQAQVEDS

For this assay, the target named is FLT3 (human), P36888 [ITD]. Put plainly: KINOMEscan competition binding.

One may read the Kd as the free concentration of one partner at which half of the binding sites on the other are occupied at equilibrium, for simple one-to-one binding. A high value points to weaker binding.

`CO[C@@H]1[C@H](N(C)C(=O)c2ccccc2)C[C@H]2O[C@]1(C)n1c3ccccc3c3c4c(c5c6ccccc6n2c5c31)C(=O)NC4O` (stereo partly specified) displayed a dissociation constant (Kd) of 43 nM.
